The values that follow come from US6589992B2, “Inhibiting collagen-induced platelet aggregation” (Parker Hughes Institute, priority 1999, dated 2003).

Amino acid sequences for entries named in this document (tags omitted). A change or cut given only in a name is not applied to a line headed by its entry.
UniProt P24604: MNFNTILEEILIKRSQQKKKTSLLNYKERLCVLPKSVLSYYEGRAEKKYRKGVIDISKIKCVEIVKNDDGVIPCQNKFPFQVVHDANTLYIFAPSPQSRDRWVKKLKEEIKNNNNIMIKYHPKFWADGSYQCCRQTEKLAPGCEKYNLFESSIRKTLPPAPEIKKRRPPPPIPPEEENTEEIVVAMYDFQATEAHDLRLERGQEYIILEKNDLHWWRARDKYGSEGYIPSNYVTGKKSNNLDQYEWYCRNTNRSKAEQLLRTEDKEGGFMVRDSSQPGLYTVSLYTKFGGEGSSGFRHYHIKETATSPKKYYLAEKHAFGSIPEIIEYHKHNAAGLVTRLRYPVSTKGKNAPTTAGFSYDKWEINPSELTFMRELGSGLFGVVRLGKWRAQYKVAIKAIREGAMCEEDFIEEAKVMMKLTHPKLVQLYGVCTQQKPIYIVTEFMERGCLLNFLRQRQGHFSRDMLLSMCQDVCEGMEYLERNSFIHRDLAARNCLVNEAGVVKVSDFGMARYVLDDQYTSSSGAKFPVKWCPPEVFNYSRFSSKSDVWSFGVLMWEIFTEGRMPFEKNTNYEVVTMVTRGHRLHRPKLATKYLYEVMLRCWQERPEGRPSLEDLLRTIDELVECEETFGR

pIC50: −log10 of the molar value.

This experiment deals with recombinant TEC kinase (Mus musculus, UniProt P24604). Nature of the experiment: biochemical.

On to `C/C(O)=C(\C#N)C(=O)Nc1cc(Br)ccc1Br` [LFM-A13, α-cyano-β-hydroxy-β-methyl-N-(2,5-dibromophenyl)-propenamide], for which the pIC50 was 4.83.
